In general, Ki refers to a measure of affinity in units of concentration, obtained from inhibition or displacement. A higher Ki goes with lower affinity.

Sequences of proteins named here, by UniProt entry; tags and fusion partners are left off. A change or cut given only in a name is not applied to a line headed by its entry.
UniProt Q9Y5N1: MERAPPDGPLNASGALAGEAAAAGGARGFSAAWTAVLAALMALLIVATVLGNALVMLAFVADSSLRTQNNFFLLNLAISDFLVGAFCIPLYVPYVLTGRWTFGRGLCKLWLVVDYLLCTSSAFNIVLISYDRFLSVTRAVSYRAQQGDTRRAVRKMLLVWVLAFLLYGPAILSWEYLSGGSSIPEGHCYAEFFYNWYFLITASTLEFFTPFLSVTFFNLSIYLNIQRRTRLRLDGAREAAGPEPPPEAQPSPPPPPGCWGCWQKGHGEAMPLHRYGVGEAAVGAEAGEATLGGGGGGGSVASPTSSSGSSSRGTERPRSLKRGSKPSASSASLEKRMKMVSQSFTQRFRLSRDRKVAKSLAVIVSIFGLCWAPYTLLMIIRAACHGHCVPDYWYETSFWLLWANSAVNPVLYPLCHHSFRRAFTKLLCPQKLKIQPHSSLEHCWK
UniProt Q9QYN8: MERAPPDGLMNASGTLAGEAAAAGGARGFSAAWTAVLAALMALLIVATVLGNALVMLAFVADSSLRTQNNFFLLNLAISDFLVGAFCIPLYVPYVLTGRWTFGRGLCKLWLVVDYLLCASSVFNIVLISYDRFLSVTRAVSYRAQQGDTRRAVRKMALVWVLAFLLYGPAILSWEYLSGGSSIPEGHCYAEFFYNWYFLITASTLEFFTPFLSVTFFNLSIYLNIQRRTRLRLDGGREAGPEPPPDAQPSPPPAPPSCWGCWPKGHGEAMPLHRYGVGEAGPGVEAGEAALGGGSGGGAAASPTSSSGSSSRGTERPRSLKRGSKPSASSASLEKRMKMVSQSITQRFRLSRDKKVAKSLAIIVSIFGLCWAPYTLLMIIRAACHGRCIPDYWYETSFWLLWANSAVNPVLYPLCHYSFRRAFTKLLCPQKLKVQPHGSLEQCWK

Data on five compounds can be found in patent US8236792B2, “Substituted pyrrolidine amides as modulators of the histamine H3 receptor” (Janssen Pharmaceutica NV, priority 2008, dated 2012).

Test [1] addresses T1, human H3 receptor (Homo sapiens, UniProt Q9Y5N1). The test is described as follows: Cyclic AMP Accumulation (human H3 reporter subline). Type of test: cell-based. Also noted: expressed in transfected cells; host or cells: SK-N-MC sublines with a reporter construct.
The target in test [2] is T2, cloned human H3 receptors (Homo sapiens, UniProt Q9Y5N1).
T2 construct: expressed in transfected cells
The test is described as follows: H3 Receptor Binding (Human) Method 1. The settings on record: receptor stably expressed in SK-N-MC cells, free base forms, average of results.

In test [3] the target is T3, rat H3 receptor (Rattus norvegicus, UniProt Q9QYN8).
T3 construct: expressed in transfected cells; host or cells: SK-N-MC sublines with a reporter construct
The test is described as follows: Cyclic AMP Accumulation (rat H3 reporter subline). Type of test: cell-based.

Test [4] addresses T1, human H3 receptor. The test is described as follows: H3 Receptor Binding (Human) Method 2, [125I]-iodoproxyfan competitive radioligand binding. Also noted: expressed in transfected cells.

On to `N#Cc1cccc(O[C@@H]2CN[C@@H](C(=O)N3CCCN(C4CCC4)CC3)C2)c1` [Example 70, (2R,4S)-4-(3-Cyano-phenoxy)-2-(4-cyclobutyl-[1,4]diazepane-1-carbonyl)-pyrrolidine], for which the Kb was 0.692 nM in test [1] and 6.92 nM in test [3]. Moreover, in test [2], the affinity, expressed as Ki, was 1 nM. In test [4], `COc1cccc(O[C@@H]2CN[C@@H](C(=O)N3CCCN(C4CCC4)CC3)C2)c1` [Example 73, (2R,4S)-4-(3-Methoxy-phenoxy)-2-(4-cyclobutyl-[1,4]diazepane-1-carbonyl)-pyrrolidine] showed a Ki of 1140 nM. `CC(C)O[C@H]1CN[C@H](C(=O)N2CCCN(C3CCC3)CC2)C1` [Example 104, (2S,4R)-2-(4-Cyclobutyl-[1,4]diazepane-1-carbonyl)-4-isopropoxy-pyrrolidine] gave an inhibitory constant (Ki) in test [2] of 58 nM.

Turning to `CN1C[C@@H](Oc2ccc(F)cc2)C[C@H]1C(=O)N1CCCN(C2CCC2)CC1` [Example 106, (2S,4S)-1-Methyl-2-(4-cyclobutyl-[1,4]diazepane-1-carbonyl)-4-(4-fluoro-phenoxy)-pyrrolidine], the Ki in test [2] was determined as 71 nM.

`CN1C[C@@H](Oc2ccc(F)cc2)C[C@@H]1C(=O)N1CCCN(C2CCC2)CC1` [Example 110, (2R,4S)-1-Methyl-2-(4-cyclobutyl-[1,4]diazepane-1-carbonyl)-4-(4-fluoro-phenoxy)-pyrrolidine]: the “Human pA2” value in test [1] (SK-N-MC subline with reporter construct and human H3 receptor, free base or trifluoroacetate salt, average) worked out at 9.13. Further, the inhibition constant (Ki) in test [4] stood at 2 nM.
